# Target: washed platelet suspension (Homo sapiens, UniProt Q96RI0)
# Sequences of proteins named here, by UniProt entry; tags and fusion partners are left off. Residues count along the entry.
# UniProt Q96RI0, 48-385 limits assumed: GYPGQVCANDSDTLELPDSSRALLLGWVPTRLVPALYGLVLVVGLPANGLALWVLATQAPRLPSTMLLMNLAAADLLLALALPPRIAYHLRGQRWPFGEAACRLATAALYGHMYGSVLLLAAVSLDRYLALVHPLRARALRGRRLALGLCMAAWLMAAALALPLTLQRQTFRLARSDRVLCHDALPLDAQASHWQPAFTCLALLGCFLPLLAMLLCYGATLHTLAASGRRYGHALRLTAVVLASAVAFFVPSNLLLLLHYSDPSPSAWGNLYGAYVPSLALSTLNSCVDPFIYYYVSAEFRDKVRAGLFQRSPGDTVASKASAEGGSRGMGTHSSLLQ
# Experiment: PAR4 agonist peptide induced platelet aggregation assay (96-well microplate)
# Type: cell-based
# Settings: read-out: ED50 (μM) [Platelet Aggregation]; washed platelets, 37° C., read at 405 nm up to 15 minutes
row,Structure (SMILES),EC50 [µM]
1,CC(C)C[C@H](NC(=O)[C@H](Cc1c[nH]c2ccc(O)cc12)NC(=O)CNC(=O)[C@@H]1CCCN1C(=O)[C@H](Cc1ccc(F)cc1)NC(=O)[C@H](C)N)C(=O)N[C@H](C(N)=O)C(C)C,0.97
2,CC(C)C[C@H](NC(=O)C(Cc1c[nH]c2ccc(Br)cc12)NC(=O)CNC(=O)[C@@H]1CCCN1C(=O)[C@H](Cc1ccc(F)cc1)NC(=O)[C@H](C)N)C(=O)N[C@H](C(N)=O)C(C)C (some centres unmarked),0.67
3,CC(C)C[C@H](NC(=O)[C@H](Cc1ccsc1)NC(=O)CNC(=O)[C@@H]1CCCN1C(=O)[C@H](Cc1ccc(F)cc1)NC(=O)[C@H](C)N)C(=O)N[C@H](C(N)=O)C(C)C,1.6
4,CC(C)C[C@H](NC(=O)[C@@H](Cc1c[nH]c2ccccc12)NC(=O)CNC(=O)[C@@H]1CCCN1C(=O)[C@H](Cc1ccc(F)cc1)NC(=O)[C@H](C)N)C(=O)N[C@H](C(N)=O)C(C)C,12.3
5,CC(C)C[C@H](NC(=O)[C@H](Cc1cscn1)NC(=O)CNC(=O)[C@@H]1CCCN1C(=O)[C@H](Cc1ccc(F)cc1)NC(=O)[C@H](C)N)C(=O)N[C@H](C(N)=O)C(C)C,5.5
6,CC(C)C[C@H](NC(=O)[C@H](Cc1cccnc1)NC(=O)CNC(=O)[C@@H]1CCCN1C(=O)[C@H](Cc1ccc(F)cc1)NC(=O)[C@H](C)N)C(=O)N[C@H](C(N)=O)C(C)C,1
7,CC(C)C[C@H](NC(=O)[C@H](Cc1ccccc1)NC(=O)CNC(=O)[C@@H]1CCCN1C(=O)[C@H](Cc1ccc(F)cc1)NC(=O)[C@H](C)N)C(=O)N[C@H](C(N)=O)C(C)C,1.2
8,CC(C)C[C@H](NC(=O)[C@H](Cc1ccoc1)NC(=O)CNC(=O)[C@@H]1CCCN1C(=O)[C@H](Cc1ccc(F)cc1)NC(=O)[C@H](C)N)C(=O)N[C@H](C(N)=O)C(C)C,4.1
9,CC(C)C[C@H](NC(=O)[C@H](Cc1c[nH]cn1)NC(=O)CNC(=O)[C@@H]1CCCN1C(=O)[C@H](Cc1ccc(F)cc1)NC(=O)[C@H](C)N)C(=O)N[C@H](C(N)=O)C(C)C,106
10,CC(C)C[C@H](NC(=O)[C@@H]1Cc2c([nH]c3ccccc23)CN1C(=O)CNC(=O)[C@@H]1CCCN1C(=O)[C@H](Cc1ccc(F)cc1)NC(=O)[C@H](C)N)C(=O)N[C@H](C(N)=O)C(C)C,37
11,CC(C)C[C@H](NC(=O)[C@H](Cc1ccccn1)NC(=O)CNC(=O)[C@@H]1CCCN1C(=O)[C@H](Cc1ccc(F)cc1)NC(=O)[C@H](C)N)C(=O)N[C@H](C(N)=O)C(C)C,52
12,CC(C)C[C@H](NC(=O)[C@H](Cc1ccncc1)NC(=O)CNC(=O)[C@@H]1CCCN1C(=O)[C@H](Cc1ccc(F)cc1)NC(=O)[C@H](C)N)C(=O)N[C@H](C(N)=O)C(C)C,1.7
13,CC(C)C[C@H](NC(=O)[C@H](Cc1ccc(O)cc1)NC(=O)CNC(=O)[C@@H]1CCCN1C(=O)[C@H](Cc1ccc(F)cc1)NC(=O)[C@H](C)N)C(=O)N[C@H](C(N)=O)C(C)C,0.79
14,CC(C)C[C@H](NC(=O)[C@H](C/C=C/c1ccccc1)NC(=O)CNC(=O)[C@@H]1CCCN1C(=O)[C@H](Cc1ccc(F)cc1)NC(=O)[C@H](C)N)C(=O)N[C@H](C(N)=O)C(C)C,3
